Reference: ChEMBL document CHEMBL1149509, “Search of antitubercular activities in tetrahydroacridines: synthesis and biological evaluation” (Bioorg Med Chem Lett, 2006)

Experiment: Partition coefficient, log P of the compound
Type: physicochemical
Conditions: octanol/water

| Compound | LogP |
| --- | --- |
| c1ccc2c(NCCCCNc3c4c(nc5ccccc35)CCCC4)c3c(nc2c1)CCCC3 | 6.74 |
| c1ccc2c(NCCCNc3c4c(nc5ccccc35)CCCC4)c3c(nc2c1)CCCC3 | 6.28 |
